# Source: US20040142379A1, “Affinity fishing for ligands and proteins receptors” (Carlsberg Research Laboratory, priority 2003, published 2004)
# Molecular target: six protein mixture: Con A, P. sativum lectin, L. culinaris lectin, W. floribunda lectin, Glyceraldehyde 6-phosphate, and bovine serum albumin (BSA) (Canavalia ensiformis, UniProt P02866)
# Conditions: among the lectins of the six protein mixture
# Method: The ligand-resin was washed with 10 mM PBS buffer, pH 6.8 containing 1 mM CaCl2 and 1 mM MnCl2. A mixture of unlabelled proteins, Glycerol-3-phosphate: BSA: Wisteria floribunda: Lens culinaris: Pisatum sativum in a […] weight ratio was dissolved in 10 mM PBS buffer, pH 6.8 containing 1 mM CaCl2 and 1 mM MnCl2 The protein mix (3.5 mL, ca. 1.2 mg protein) was applied to each ligand column and allowed to bind overnight. The column was washed with the same buffer until no more protein was eluted (Abs 280 nm). Bound protein was eluted from the column using 0.5M mannose in 10 mM PBS buffer, pH 8.0 containing CaCl2 and 1 mM MnCl2 (buffer filtered to remove CaOH2 formed) for glycopeptides containing only mannose, 0.5 M N-acetylglucosamine in 10 […] mM PBS buffer, pH 8.0 containing CaCl2 and 1 mM MnCl2 (buffer filtered to remove CaOH2 formed) for glycopeptides containing only GlcNAc, and both buffers for glycopeptides containing both mannose and GlcNAc, or for unglycosylated peptides. Samples were obtained in about 700 μL volume and frozen for later protein identification.
substance,measurement,value
GlcNN-Trp-Phe-Asp-Trp-Pro,selectivity of lectin binding,binds only to Con A and not to the other lectins
